## Ab-14 light chain CDR variants: yeast mating affinities

The measurements come from Li et al. 2023 (doi:10.1038/s41467-023-39022-2) through the FLAb antibody collection.

All variants were tested on one target, the spike HR2 peptide PDVDLGDISGINAS (SARS-CoV-2).

Each scFv is VH, a (GGGGS)3 linker, VL, as in the parent Ab-14, and differs from it in the CDRs of the light chain only.
VH: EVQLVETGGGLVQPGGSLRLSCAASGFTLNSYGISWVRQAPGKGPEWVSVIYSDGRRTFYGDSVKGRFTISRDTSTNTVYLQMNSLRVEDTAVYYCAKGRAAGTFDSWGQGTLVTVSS
VL: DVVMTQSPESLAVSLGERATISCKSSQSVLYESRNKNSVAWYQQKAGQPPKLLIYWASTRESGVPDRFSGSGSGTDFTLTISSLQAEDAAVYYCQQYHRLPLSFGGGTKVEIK

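The variants were designed computationally from a first round of random CDR variants and then made and measured. Group labels follow the data file (En: ensemble of fine-tuned language models; GP: Gaussian process model; HC: hill climbing; Gen: genetic algorithm; Gibbs: Gibbs sampling; a sequence that several methods proposed may carry one label only). In AlphaSeq, yeast of one mating type display the scFv and yeast of the other type display the target. Binding brings cells together so that they mate, and sequencing counts the barcode pairs among the diploids. Read counts were normalised to the haploid input and turned into Kd by a linear fit to BCL2-family pairs of known affinity, for each replicate. The assay was run in six technical replicates.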

Each variant is given by its three light chain CDRs, as the data file delimits them; those of the parent are KSSQSVLYESRNKNSVA, WASTRES, QQYHRLPLS. Variants here have more than six changes. The Kd shown is the geometric mean over detected replicates; a lower Kd is a better binder. A pair that was not seen in any replicate is written "nd"; this usually means weak binding, but a binder can also be missed. The range of this assay differs from that of the first round, and the authors advise against merging the two. Three control strains display no target. For all light chain designs, 4% of the pairings with them gave a signal, with a median of 430 nM and one signal in twenty below 38 nM, so weak values seen in few replicates may be background. For each scFv, signals with the empty controls are counted beside the result. In the paper, a design with two or fewer of six values counts as a poor binder.

Variant KVSQSELGEERNKMSVA / SASTREK / QQYHRLPLS [GP_Gibbs] gave 2.1 nM (6 of 6 replicates; controls 0 of 18). For KFSQSDDYEDRNKNSVA / NGSTRSS / QQYHRLPLS [GP_Gibbs], the assay gave 930 pM (6 of 6 replicates; controls 3 of 18). Variant YMSMYLDMQQSIQCGVA / DATTRNA / QQYQRLPLS [En_Gibbs] showed 330 pM (6 of 6 replicates; controls 2 of 18). Variant MMSQVTGMESKHRNNVA / QTSTRES / QQYDRLPLI [En_Gen] gave 8.9 nM (6 of 6 replicates; controls 1 of 18). With ALSQSMDMTSRNKNSVA / DLSTRCN / QQYHRLPLS [En_HC] the result was 510 pM (6 of 6 replicates; controls 2 of 18). Variant KISMATTFESRNHNSVA / ENSTREA / QSYHRLPLS [En_HC] gave nd (0 of 6 replicates; controls 1 of 18). Variant KLTATMRFEQKISNNIA / EVTTRSK / QQYYRLPLS [En_Gen] showed 3.2 nM (6 of 6 replicates; controls 1 of 18). Variant KVSEFMRGLMGRKDSIA / DNNTRGA / QQYDRLPLS [En_Gen] showed 320 nM (4 of 6 replicates; controls 1 of 18).

For SLMQVGGYEMNNHNSIA / DLRTRES / QQYHRLPLS [En_HC], the assay gave 5.5 nM (6 of 6 replicates; controls 0 of 18). Variant KFAQGIYEPWRHSHNIA / EASHVCD / QQYARLPLE [En_Gibbs] gave 2.6 nM (6 of 6 replicates; controls 0 of 18). For KISQSVGMTSFNKNSVA / ENSTREN / QQYDRLPLS [En_HC], the assay gave 11 nM (6 of 6 replicates; controls 0 of 18). With KISMLYNYASTNKNSIA / EMTTREA / QHYHRLPLS [En_HC] the result was 18 nM (6 of 6 replicates; controls 0 of 18). Variant SISGFMKSLSAHINNVA / DMTNRED / QQYERLPLS [En_Gen] gave 6.0 nM (6 of 6 replicates; controls 2 of 18). Variant KIGLVTNGISFSTNSVA / EQSTRNN / QQYDRLPLS [En_HC] gave 83 nM (6 of 6 replicates; controls 0 of 18). Variant MISNVMNTLTRQGNNVA / DLEERED / QQYFRLPLS [En_Gen] showed 6.0 nM (6 of 6 replicates; controls 1 of 18). For KIGQGVHLESIMKNSIA / QTSTREE / QQYDRLPLS [En_HC], the assay gave 2.4 nM (6 of 6 replicates; controls 3 of 18).

For MLSQMWALGMKVSNSVA / QATMRFN / QQYERLPLI [En_Gen], the assay gave nd (0 of 6 replicates; controls 0 of 18). With KLTMITGLEKVSKNNVA / EMETRVQ / QQYNRLPLS [En_Gen] the result was 1.4 nM (6 of 6 replicates; controls 0 of 18). With MMSSLMGYESRHINNVA / QTTTRES / QQYDRLPLI [En_Gen] the result was 1.0 nM (6 of 6 replicates; controls 1 of 18). Variant KIGMTLNQLLHQKNNVA / DLVMRES / QQYHRLPLS [En_Gen] showed 140 nM (6 of 6 replicates; controls 1 of 18). For IVSQLMLWGHLAKNSIA / EAETRLN / QQYDRLPLF [En_Gen], the assay gave 7.4 nM (6 of 6 replicates; controls 2 of 18). Variant KMSQSWLYEQRNVNSVA / NASKRLL / QQYHRLPLS [GP_Gibbs] gave 730 pM (6 of 6 replicates; controls 0 of 18). Variant HFSQSVPYESRNFNSVA / NASLRFS / QQYHRLPLS [GP_Gibbs] gave 13 nM (6 of 6 replicates; controls 0 of 18). Variant TLTQSVGMESHNKNSVA / DLSTRGS / QQYHRLPLS [En_HC] showed 2.3 nM (6 of 6 replicates; controls 1 of 18).

With MISQLYNMGQFAINSVA / QASERNV / QQYDRLPLT [En_Gen] the result was 79 nM (6 of 6 replicates; controls 3 of 18). For KITQTMRFEQKQKNNIA / EVTTRSK / QQYYRLPLS [En_Gen], the assay gave 11 nM (6 of 6 replicates; controls 0 of 18). Variant HITDLMYNNNEGMQNIA / DKAISVN / QQYFRLPLD [En_Gibbs] gave 7.1 nM (6 of 6 replicates; controls 2 of 18). With KLSWSVEYQDRLSNSVA / DASQREW / QQYHRLPLS [GP_Gibbs] the result was 1.5 nM (6 of 6 replicates; controls 1 of 18). Variant KSQQSWLYESRNSNSVA / NGSTREL / QDYHRLPLS [GP_Gibbs] gave 3.0 nM (6 of 6 replicates; controls 1 of 18). With QLLMATMQGTYNRNSVA / HAETRED / QSYHRLPLS [En_HC] the result was 36 nM (5 of 6 replicates; controls 0 of 18). Variant KISQMSTIESITHNSVA / QTSTRES / QQYDRLPLS [En_HC] gave 4.9 nM (6 of 6 replicates; controls 1 of 18). Variant MFSQMWAIGNKVSNSVA / QASTRFN / QQYDRLPLI [En_Gen] gave 27 nM (6 of 6 replicates; controls 1 of 18).

Variant KISQAYLYESRNKNSVA / QANYREQ / QQYHRLPLS [GP_Gibbs] gave 500 pM (6 of 6 replicates; controls 1 of 18). Variant MVSQLMVWGMHAKNSIA / EAQMRLN / QQYDRLPLF [En_Gen] showed 8.7 nM (6 of 6 replicates; controls 2 of 18). With KISQNMGETQRNKNSVA / EVSTVPP / QQYWRLPLS [En_HC] the result was 55 nM (6 of 6 replicates; controls 1 of 18). For ALSQMMDMTSRNKNSVA / DLSTREN / QQYHRLPLS [En_HC], the assay gave 1.0 nM (6 of 6 replicates; controls 0 of 18). Variant LIKGMVDGQYYWQNNIA / DSEERDR / QQYNHLPLS [En_Gibbs] gave 1.4 nM (6 of 6 replicates; controls 0 of 18). With SLAMLLDQVYAKGANIA / NAAELVV / QQYYRLPLT [En_Gibbs] the result was 63 nM (6 of 6 replicates; controls 0 of 18). For MVTQMAMTGMMSKRSVA / NAETRET / QQYHRLPLI [En_Gen], the assay gave 6.1 nM (6 of 6 replicates; controls 0 of 18). With KVSQSAWMESRNFNSVA / NASTREE / QQYHRLPLS [GP_Gibbs] the result was 2.2 nM (6 of 6 replicates; controls 1 of 18).

Variant KLMMFMQEIGIMKNNIA / NLEMGAR / QQYAQLPLV [En_Gibbs] gave nd (0 of 6 replicates; controls 0 of 18).

The 4 strongest on average among those seen in every replicate, once more:

| CDR-L1 | CDR-L2 | CDR-L3 | group | apparent Kd | replicates with signal | control signals |
|---|---|---|---|---|---|---|
| YMSMYLDMQQSIQCGVA | DATTRNA | QQYQRLPLS | En_Gibbs | 330 pM | 6/6 | 2/18 |
| KISQAYLYESRNKNSVA | QANYREQ | QQYHRLPLS | GP_Gibbs | 500 pM | 6/6 | 1/18 |
| ALSQSMDMTSRNKNSVA | DLSTRCN | QQYHRLPLS | En_HC | 510 pM | 6/6 | 2/18 |
| KMSQSWLYEQRNVNSVA | NASKRLL | QQYHRLPLS | GP_Gibbs | 730 pM | 6/6 | 0/18 |